# scFv variants of Ab-14 (heavy chain) against a SARS-CoV-2 spike peptide

Data: MIT Lincoln Laboratory AlphaSeq set, Engelhart et al. 2022, doi:10.1038/s41597-022-01779-4, as distributed in FLAb.

Binding partner: SARS-CoV-2 spike HR2 peptide, sequence PDVDLGDISGINAS.

The variants keep the light chain, the linker and the frameworks of Ab-14 (scFv order VH, the linker GGGGSGGGGSGGGGS, VL).
VH: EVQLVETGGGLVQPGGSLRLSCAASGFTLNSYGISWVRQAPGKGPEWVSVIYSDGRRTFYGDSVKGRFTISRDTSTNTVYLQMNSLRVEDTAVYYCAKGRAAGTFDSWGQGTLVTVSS
VL: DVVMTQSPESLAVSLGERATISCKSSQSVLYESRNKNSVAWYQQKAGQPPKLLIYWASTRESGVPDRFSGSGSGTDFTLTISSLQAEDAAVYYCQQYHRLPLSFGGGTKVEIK

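The starting antibody came from a phage panning campaign against this peptide. In library AAYL49, one, two or three CDR residues were substituted; doubles and triples were drawn at random. In AlphaSeq, yeast of one mating type display the scFv and yeast of the other type display the target. The frequency of each diploid, read from paired DNA barcodes, reflects how well the two displayed proteins bind. Each replicate has its own calibration line, from reference interactions of the BCL2 family. Mating was done three times.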

Substitutions are numbered in sequence along the VH above, starting at 1 (not Kabat).
Affinities are written as log10 Kd with Kd in nM; a lower number is a better binder.
A mean of the replicates is given; it leaves out those without a signal.
"nd" marks a missing value. The strain was present, yet no cells mated with the target were sequenced in any replicate, which points to weak or no binding.
Parent in this assay: reference entry 0.65, copy in this library 4.11 (one replicate of three).
Nonspecific signal, from three strains lacking the peptide, appeared in 15% of pairings of library AAYL49, centred on 4.06 (5% of these signals below 2.83); values are not corrected for it.

G26S/R100T/S107E: 1.64 (3 of 3 replicates).
G26W/S35F/D62L: nd (0 of 3 replicates).
R56G/G61D/V64I: 3.04 (3 of 3 replicates).
N30E/S31W/D54H: nd (0 of 3 replicates).
S35W/A102Y/D106I: nd (0 of 3 replicates).
T28R/Y60P/G103D: 3.59 (1 of 3 replicates).
N30H/I34L/F59D: 3.67 (2 of 3 replicates).
V50A/Y60V/G99Y: 3.05 (2 of 3 replicates).
Y32F/G33Y/Y60W: nd (0 of 3 replicates).
I34R/Y52C/G55T: nd (0 of 3 replicates).
Y32C/Y60E/D106S: nd (0 of 3 replicates).
D106T/S107H: 0.79 (3 of 3 replicates).
I51K/G55C/T58R: 4.25 (2 of 3 replicates).
R57C/D62N/T104W: nd (0 of 3 replicates).
T28E/G33Y/I34L: nd (0 of 3 replicates).
S31D/S63A/D106S: 0.58 (3 of 3 replicates).
S63I/K65H/A102R: 3.24 (2 of 3 replicates).
G26V/Y32S/G61W: nd (0 of 3 replicates).
G61L/V64M: 3.89 (1 of 3 replicates).
T58D/F105H: nd (0 of 3 replicates).
Y52D/G99K/A101D: 4.68 (2 of 3 replicates).
T28W/N30I/D54Q: nd (0 of 3 replicates).
F27P/Y52R/D106M: 2.60 (1 of 3 replicates).
D54S/G103N: nd (0 of 3 replicates).
Y32S/R57E/A102C: nd (0 of 3 replicates).
Y32R/I34Q/F105E: 3.75 (1 of 3 replicates).
R56I/Y60N/G99Y: 3.83 (3 of 3 replicates).
T28G/N30F/A101H: 1.79 (3 of 3 replicates).
N30D/V64R/K65I: nd (0 of 3 replicates).
Y52W/G61Q/D62C: 5.90 (1 of 3 replicates).
T28C/F59W/V64E: nd (0 of 3 replicates).
G26C/I51P/G61W: nd (0 of 3 replicates).
L29N/G99C: nd (0 of 3 replicates).
S35K/I51E/Y60P: 3.33 (1 of 3 replicates).
T58M/F105D/S107K: 4.59 (2 of 3 replicates).
L29W/S53R/A101T: 4.16 (2 of 3 replicates).
T28D/Y32D/G103K: nd (0 of 3 replicates).
Y32D/S35N/R56D: nd (0 of 3 replicates).
F27W/V50W/D106P: 5.23 (3 of 3 replicates).
F27L/I51R/R100V: 4.24 (1 of 3 replicates).
I34K/S35G/S107D: 3.96 (2 of 3 replicates).

Excerpt, the final 5 entries:

Variant T28D/Y32D/G103K gave nd (0 of 3 replicates).
Variant Y32D/S35N/R56D gave nd (0 of 3 replicates).
Variant F27W/V50W/D106P gave 5.23 (3 of 3 replicates).
Variant F27L/I51R/R100V gave 4.24 (1 of 3 replicates).
Variant I34K/S35G/S107D gave 3.96 (2 of 3 replicates).